# Source: PubChem (National Center for Advancing Translational Sciences (NCATS))
# uPA surface inh: blocks generation of uPA at the cell surface; cell surface uPA generation assay, qHTS; Potency, µM (titrated, usually from 38.3 µM), for inactives: at the top dose activity change, negative = inhibition, usual class: inhibitors; 330,000 compounds, 0.31% hits; AID 540303; active = well fitted inhibition curve with a large enough effect; inconclusive = small, poorly fitted or top-dose-only effect; inactive = no such curve, though single readings can be large or run the other way; tested in mouse RAW 264.7 cells; note: potency is the fitted concentration of half-maximal effect; % is set by controls: 0 for no effect and ±100 for the full control effect; nearly all actives have a fitted effect of over 55% in size
# TDP1 inh: inhibitors of human tyrosyl-DNA phosphodiesterase TDP1. Q9NUW8. recombinant TDP1, AlphaScreen DNA substrate cleavage. Potency, µM (titrated, usually from 130 µM), without a hit: at the top dose activity change, negative = inhibition, actives largely listed as inhibitors. 350,000 compounds, 0.28% hits. AID 485290; note: potency is the fitted concentration of half-maximal effect; % is set by controls: 0 for no effect and ±100 for the full control effect; nearly all actives have a fitted effect of over 40% in size
#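 Recombinant human Tdp1 (E. coli-expressed, 1 nM final) preincubated with compounds 15 min at room temperature, then 5'-biotin/3'-phosphotyrosine-FITC DNA substrate (15 nM final) added for 5 min. AlphaScreen beads (10 ug/ml final) added 10 min; cleavage lowers signal.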
# DT40 TDP1 no CPT: qHTS for Inhibitors of human tyrosyl-DNA phosphodiesterase 1 (TDP1): qHTS in cells in absence of CPT; DT40 Tdp1-/- hTDP1 cells, no CPT, ATP luminescence, 48 h; Potency, µM (titrated, usually from 46.2 µM), inactives show top-dose activity change, negative = growth inhibition, actives largely listed as inhibitors; 420,000 compounds, 15% hits; AID 686978, 2013; note: potency is the fitted concentration of half-maximal effect; % is set by controls: 0 for no effect and ±100 for the full control effect; nearly all actives have a fitted effect of over 55% in size
#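 Cells were dispensed at 400 per well, compounds added by pin tool, plates incubated ≥48 hr at 37 °C, then CellTiter-Glo added for 30 min at room temperature before luminescence reading. Line: DT40 Tdp1-/- complemented with hTDP1; camptothecin omitted.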
# TDP1 cell CPT: growth inhibition of DT40 Tdp1-/-;hTDP1 cells with camptothecin (screen for TDP1 inhibitors). chicken DT40 Tdp1-/-;hTDP1 cells + 20 nM CPT, ATP luminescence, 48 h. 420,000 compounds, 12% hits. Potency, µM (top dose mostly 46.2 µM), for inactives: at the highest dose activity change, negative = growth inhibition, most hits filed as inhibitors; note: potency is the fitted concentration of half-maximal effect; % is set by controls: 0 for no effect and ±100 for the full control effect; nearly all actives have a fitted effect of over 55% in size
#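 Chicken DT40 Tdp1-/- cells complemented with human TDP1, 400 cells/well, exposed to compounds plus 20 nM camptothecin for at least 48 h at 37 C; viability read as ATP content by CellTiter-Glo luminescence.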
# miR-21 FLuc: miR-21 reporter, rising signal. HeLa miR-21 FLuc reporter, luciferase, 48 h. Potency, µM (titrated, usually from 38.3 µM), without a hit: at the top dose reporter change, positive = more light. 340,000 tested, under 10 active. AID 2288; active = well fitted rising curve with a large enough effect; inconclusive = small, poorly fitted or top-dose-only effect; inactive = no such curve, though single readings can be large or run the other way;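 also: % of control where 0% means no effect; miR-21 action dims this reporter so a rising signal means less miR-21 action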
#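 Compounds were titrated across several concentrations (up to approximately 40 uM) and incubated 48 hours with HeLa miR-21-FLuc reporter cells (miR-21 target sequence downstream of FLuc, endogenous miR-21). Readout was firefly luciferase luminescence after lytic detection reagent.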
# The depositor's hits bear a star; ? = inconclusive; . = no result given. Rows were chosen to be rich in hits. Some 16% of all compounds tested hit in one or more screens of this group. Unless noted, calls come from the whole dose curve; as a rule, active = well fitted curve in the direction sought with a large enough effect; inconclusive = small, poorly fitted or top-dose-only effect, or another doubt; inactive = no such curve, though single readings can be large; an effect the other way counts as inactive or inconclusive.
# Field names – A = uPA surface inh; B = TDP1 inh; C = DT40 TDP1 no CPT; D = TDP1 cell CPT; E = miR-21 FLuc
Cc1ccc(-c2ccc(=O)n(Cc3cc(C)ccc3C)n2)cc1
  A: 4.9% | B: -2.3% | C: 20.6µM* | D: ? | E: 7.3%

Cc1ccc(C)c(Cn2nc(-c3ccccc3)ccc2=O)c1
  A: 0.4% | B: . | C: ? | D: ? | E: 3.0%

Cc1ccc(CCNC(=O)CCn2nc(-c3ccccc3)ccc2=O)cc1
  A: . | B: 5.2% | C: -45.6% | D: ? | E: -5.2%

CC(C)c1ccc(Cn2ccc3c4c(N)nc(NC5CC5)nc4ccc32)cc1
  A: . | B: 14.3% | C: 3.35µM* | D: 4.73µM* | E: .

Cc1nn(-c2ccccc2)c2c1c(C)c(CCC(=O)N1CCOCC1)c(=O)n2C
  A: 2.0% | B: 5.4% | C: ? | D: 23.1µM* | E: -2.8%

CCn1c(=O)c(CCC(=O)NCCN2CCOCC2)c(C)c2c(C)nn(-c3cccc(C)c3)c21
  A: 1.9% | B: 4.5% | C: 16.4µM* | D: ? | E: -10.6%

Cc1cc(=O)n(CC(=O)NCCN2CCOCC2)c2c1c(C)nn2-c1ccccc1
  A: 0.2% | B: 1.9% | C: 12.0% | D: -9.4% | E: -0.5%

CCn1c(=O)c(CCC(=O)N2CCOCC2)c(C)c2c(C)nn(-c3ccccc3)c21
  A: 1.0% | B: 2.9% | C: 20.6µM* | D: ? | E: -7.2%

CCN1CCN(CCNC(=O)CCc2c(C)c3c(C)nn(-c4ccccc4)c3n(C)c2=O)CC1
  A: 3.0% | B: 4.9% | C: ? | D: ? | E: -7.0%

COc1ccc(C2(C(=O)N3CCOCC3)CCCC2)cc1
  A: 0.6% | B: 1.9% | C: -15.8% | D: 3.9% | E: -0.6%

CC(C)c1ccc(NC(=O)CNC(=O)Cn2ccc3ccccc3c2=O)cc1
  A: -0.5% | B: -8.5% | C: 15.4% | D: 2.4% | E: 0.6%

CC(C)c1ccc(NC(=O)C[n+]2ccn(C3=C([O-])c4ccccc4C3=O)c2)cc1
  A: 5.7% | B: 50.1µM* | C: -26.3% | D: -1.4% | E: -0.6%

COc1ccccc1/C=C/C=N/NC(=O)c1cc(-c2ccco2)[nH]n1
  A: -3.0% | B: 5.1% | C: 18.4µM* | D: ? | E: 1.9%

CC(/C=N/NC(=O)c1cc(-c2ccc(C)o2)[nH]n1)=C\c1ccccc1
  A: ? | B: 5.7% | C: 16.4µM* | D: 14.6µM* | E: -6.0%

NNC(=O)c1cc(-c2ccco2)[nH]n1
  A: -8.7% | B: 4.7% | C: -13.0% | D: -17.4% | E: 2.7%

O=C(N/N=C/C(Br)=C/c1ccccc1)c1cc(-c2ccco2)[nH]n1
  A: -29.8% | B: 5.9% | C: 8.2µM* | D: 6.51µM* | E: 8.8%

Cn1c(=O)[nH]c(=O)c2c1nc(CN1CCN(c3cccc(Cl)c3)CC1)n2Cc1ccccc1Cl
  A: 13.0% | B: 3.3% | C: 14.6µM* | D: ? | E: -6.5%

CCCCn1c(CN2CCN(c3cccc(Cl)c3)CC2)nc2c1c(=O)[nH]c(=O)n2C
  A: ? | B: -2.2% | C: 3.26µM* | D: 3.26µM* | E: 27.0%

CC(C)Cn1c(CN2CCN(c3cccc(Cl)c3)CC2)nc2c1c(=O)[nH]c(=O)n2C
  A: . | B: 9.0% | C: 20.6µM* | D: 18.4µM* | E: 8.5%

COC(=O)CSc1nnc(CNC(=O)c2ccccc2OC)n1-c1ccc(OC)cc1
  A: . | B: 4.0% | C: -18.4% | D: -2.2% | E: 0.1%

CC(=O)Nc1ccc(NC(=O)c2cccc(Oc3ccccc3)c2)cc1
  A: . | B: 1.2% | C: ? | D: -26.3% | E: -3.1%

CN(C)c1ccc(C(=O)C(=O)c2ccccc2)cc1
  A: 5.0% | B: . | C: 11.5% | D: -3.5% | E: -38.3%

CN(C)c1ccc(C(=C2C=CC(=[N+](C)C)C=C2)c2ccccc2)cc1
  A: . | B: 25.2% | C: 0.596µM* | D: 0.841µM* | E: .

CN(C)c1ccc(C(=C2C=CC(=[N+](C)C)C=C2)c2ccc(N(C)C)cc2)cc1
  A: . | B: 19.9% | C: 0.517µM* | D: 0.231µM* | E: .

Cc1cccc(-c2noc(CN(C(=O)/C=C/c3ccccc3Cl)C(C)C)n2)c1
  A: 2.1% | B: 0.0% | C: ? | D: 18.4µM* | E: -11.5%

# Compounds shown so far that have an aryl methoxy group (3):
# Field names – A = uPA surface inh; B = TDP1 inh; C = DT40 TDP1 no CPT; D = TDP1 cell CPT; E = miR-21 FLuc
COc1ccc(C2(C(=O)N3CCOCC3)CCCC2)cc1
  A: 0.6% | B: 1.9% | C: -15.8% | D: 3.9% | E: -0.6%

COc1ccccc1/C=C/C=N/NC(=O)c1cc(-c2ccco2)[nH]n1
  A: -3.0% | B: 5.1% | C: 18.4µM* | D: ? | E: 1.9%

COC(=O)CSc1nnc(CNC(=O)c2ccccc2OC)n1-c1ccc(OC)cc1
  A: . | B: 4.0% | C: -18.4% | D: -2.2% | E: 0.1%

# Later entries:
# Field names – A = uPA surface inh; B = TDP1 inh; C = DT40 TDP1 no CPT; D = TDP1 cell CPT; E = miR-21 FLuc
Cc1cccc(-c2noc(CN(C(=O)CCc3ccccc3)C(C)C)n2)c1
  A: 20.8% | B: 0.0% | C: ? | D: 29.1µM* | E: -23.9%

COC(=O)Cn1c2ccc(F)cc2c2nc(C)sc21
  A: -1.8% | B: 3.9% | C: -0.1% | D: 0.5% | E: -5.8%

Cc1nc2c3cc(F)ccc3n(Cc3ccc(F)cc3)c2s1
  A: 3.55µM* | B: -2.3% | C: 8.2µM* | D: ? | E: 10.7%

Cc1nc2c3cc(Cl)ccc3n(CCN3CCCCC3)c2s1
  A: ? | B: 6.1% | C: 23.1µM* | D: 20.6µM* | E: 21.4%

CC(=O)N1CCN(C(=O)c2ccc3c(c2)OCO3)CC1
  A: 4.9% | B: -1.8% | C: 3.1% | D: 15.9% | E: .
